Chains of the proteins cited; added tags and fusions are not shown. Residues count along the entry.
UniProt O14672, 214-748, species assumed: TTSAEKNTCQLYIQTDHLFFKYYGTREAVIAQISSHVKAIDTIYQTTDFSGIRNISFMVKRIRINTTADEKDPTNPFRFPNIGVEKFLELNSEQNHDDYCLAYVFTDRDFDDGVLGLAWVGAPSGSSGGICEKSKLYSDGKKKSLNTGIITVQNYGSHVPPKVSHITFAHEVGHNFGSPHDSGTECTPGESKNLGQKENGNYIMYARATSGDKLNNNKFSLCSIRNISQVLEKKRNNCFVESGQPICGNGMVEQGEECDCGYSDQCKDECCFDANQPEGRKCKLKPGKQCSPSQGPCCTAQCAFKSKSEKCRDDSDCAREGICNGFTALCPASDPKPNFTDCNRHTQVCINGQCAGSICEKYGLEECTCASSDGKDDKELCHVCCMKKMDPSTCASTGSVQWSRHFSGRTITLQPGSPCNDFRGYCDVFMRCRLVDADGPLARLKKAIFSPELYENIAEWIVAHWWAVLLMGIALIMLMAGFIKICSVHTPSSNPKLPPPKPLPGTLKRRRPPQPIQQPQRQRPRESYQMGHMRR

According to patent publication US8633196B2, “Benzenesulfonamide compounds, method for synthesizing same, and use thereof in medicine as well as in cosmetics” (Galderma Research & Development, priority 2009, dated 2014):

Biological target: ADAM10 (Homo sapiens (Human), UniProt O14672)
Experiment: Selectivity assay, ADAM10

Row | SMILES | IC50 [µM]
1 | Cc1cc(COc2ccc(S(=O)(=O)NC[C@@H](C(=O)NO)N3CCN(S(C)(=O)=O)CC3)cc2)c2ccccc2n1 [Example 5, (S)-N-Hydroxy-2-(4-methanesulfonylpiperazin-1-yl)-3-[4-(2-methylquinolin-4-ylmethoxy)benzenesulfonylamino]propionamide] | > 10
2 | Cc1ccc(CN2CCN([C@@H](CNS(=O)(=O)c3ccc(OCc4cc(C)nc5ccccc45)cc3)C(=O)NO)CC2)cc1 [Example 21, (S)-N-hydroxy-2-[4-(4-methylbenzyl)piperazin-1-yl]-3-[4-(2-methylquinolin-4-ylmethoxy)benzenesulfonylamino]propionamide] | > 10
